Data reported in patent US20230285581A1.

The chains behind the UniProt entries cited, without tags or fusion partners. Where a name states a change or a piece, a line headed by the entry shows the natural chain unless it says otherwise. A line that says so, or that is headed by a name, gives the form on record, which may keep a tag or linker.
UniProt P21757, other isoform, or with tags, fused parts or gaps: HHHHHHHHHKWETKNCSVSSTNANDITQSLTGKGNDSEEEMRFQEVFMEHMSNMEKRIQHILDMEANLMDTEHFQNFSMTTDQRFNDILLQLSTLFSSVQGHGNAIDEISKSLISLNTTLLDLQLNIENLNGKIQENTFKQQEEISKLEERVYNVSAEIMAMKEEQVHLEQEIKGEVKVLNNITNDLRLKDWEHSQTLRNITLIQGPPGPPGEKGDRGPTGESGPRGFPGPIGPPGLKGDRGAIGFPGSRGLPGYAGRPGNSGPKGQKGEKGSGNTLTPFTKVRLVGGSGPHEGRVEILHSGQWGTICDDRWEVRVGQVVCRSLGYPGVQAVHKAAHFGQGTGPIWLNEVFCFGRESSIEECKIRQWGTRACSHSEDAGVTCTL
UniProt P30204: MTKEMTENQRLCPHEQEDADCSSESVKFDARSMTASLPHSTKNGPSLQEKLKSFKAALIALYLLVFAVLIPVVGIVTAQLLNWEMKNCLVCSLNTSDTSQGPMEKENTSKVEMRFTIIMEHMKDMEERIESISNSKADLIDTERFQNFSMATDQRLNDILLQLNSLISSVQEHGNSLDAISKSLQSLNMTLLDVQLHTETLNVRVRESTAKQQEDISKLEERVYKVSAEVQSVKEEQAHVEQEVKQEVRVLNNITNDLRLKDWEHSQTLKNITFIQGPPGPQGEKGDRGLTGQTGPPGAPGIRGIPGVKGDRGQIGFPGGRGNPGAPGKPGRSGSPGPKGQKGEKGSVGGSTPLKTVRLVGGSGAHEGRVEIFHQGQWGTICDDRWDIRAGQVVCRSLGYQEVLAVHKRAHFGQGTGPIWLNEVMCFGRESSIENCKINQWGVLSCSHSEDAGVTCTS

Columns and labels:
[1] = biological target: full length monkey MSR1 on HEK293.mfMSR1 cells (Macaca fascicularis); test: ECL cell binding, HEK293.mfMSR1 cells
[2] = biological target: full length human MSR1 with a C-terminal Myc tag on HEK293.Myc.hMSR1 cells (human) (UniProt P21757); test: ECL cell binding, HEK293.Myc.hMSR1 cells
[3] = biological target: mouse MSR1 on RAW264.7 cells (mouse) (UniProt P30204); test: flow cytometry, RAW264.7 cells, 10 ug/mL
[4] = biological target: endogenously expressed human MSR1 on PMA-treated THP-1 cells (human) (UniProt P21757); test: ECL cell binding, PMA-treated THP-1 cells
[5] = biological target: human MSR1 extracellular domain expressed with a N-terminal nonahistidine tag (His9-hMSR1; R&D Systems, Cat #2708-MS) (human) (UniProt P21757); test: competition ELISA; 100 nM antibody, competitor Ac-LDL, plate-coated His9-hMSR1
[6] = biological target: human MSR1 extracellular domain expressed with a N-terminal nonahistidine tag (His9-hMSR1; R&D Systems, Cat #2708-MS) (human) (UniProt P21757); test: competition ELISA; 1 µM antibody, competitor 10 nM Ox-LDL, plate-coated His9-hMSR1
[7] = biological target: human MSR1 extracellular domain expressed with a N-terminal nonahistidine tag (His9-hMSR1; R&D Systems, Cat #2708-MS) (human) (UniProt P21757); test: competition ELISA; 300 nM antibody, competitor biot-AGE-BSA, plate-coated His9-hMSR1

B1: H1H27751P-N297Q (antibody, human IgG1, V domains shown)
VH: EVQLVESGGGLVQPGGSLRLSCAASGFTFSNYAMHWVRQAPGKGLEYVSAISSNGGSTYYADSVKGRITISRDNSKNTLYLQMGSLRAEDMAVYYCARGRPYYYYFGMDVWGQGTTVTVSS
VL: DIVMTQTPVSSPVTLGQPASISCRSSQSLVHSDGNTYLSWFQQRPGQPPRLLIYKISNRFSGVPDRFSGSGAGTDFTLKISRVEAEDVGVYYCMQATQFPLNFGGGTKVEIKR
ratio of 11 nM antibody binding signal (RLU) to isotype control [1]: 49 | ratio of 11 nM antibody binding signal (RLU) to isotype control [2]: 63 | MFI [3]: 3820 | S/N [3]: 1 | ratio of 11 nM antibody binding signal (RLU) to isotype control [4]: 54 | % Blocking [5]: -51% | % Blocking [6]: -31% | % Blocking [7]: -11%
